Test results from patent publication US4649911A, “Small particle aerosol generator for treatment of respiratory disease including the lungs” (Baylor College of Medicine, priority 1986, dated 1987).

Key:
[1] = at discharge; both treated and control; P=0.01

NC(=O)c1ncn([C@@H]2O[C@H](CO)[C@@H](O)[C@H]2O)n1 [ribavirin]
concentration of ribavirin in aerosol (FIG. 3 apparatus, 20 mg per ml in reservoir, at initiation of generation): 160 micrograms per liter | concentration of ribavirin in the nebulizer flask (FIG. 7 apparatus, 300 ml volume, initial): 31 mg per ml | reticulocyte counts [1]: lowering of reticulocyte counts
